These results are taken from US20200283498A1, “T CELL RECEPTOR FUSIONS AND CONJUGATES AND METHODS OF USE THEREOF” (Altor Bioscience LLC, priority 2008, published 2020).

One assay has as its system YAC-1 target cells. Nature of the assay: Lytic activity of stimulated nude mouse splenocytes (calcein release). As to conditions: four days in equivalent molar amounts; YAC-1 targets. It is filed as cell-based.
The test system of assay [1] is p53+/HLA-A2.1+ MDA-MB-231 tumor cells. Nature of the assay: MDA-MB-231 xenograft tumor growth in nude mice. Type of assay: in vivo. As to conditions: compared to PBS; 9 doses i.v.
The subject of the next assay is CD45R+ cells in tumors. Nature of the assay: Immune cell infiltration into tumors (CD45R immunohistochemistry). It is filed as in vivo, nude mice. As to conditions: A375 (p53+/HLA.A2.1+) tumor sections.
Assay [2] concerns human NSCLC A549-A2 tumor cells. Kind of assay: Adoptive transfer of preincubated NK cells in A549-A2 experimental metastasis model. Type of assay: in vivo, athymic nude mice. To be noted: CTX 200 mg/kg ip days 14, 21; NK cells preincubated with the protein iv days 16, 22 (CTX group: no NK cells).
Assay [3] concerns human A375 cell line tumors. Nature of the assay: A375 primary tumor growth model in nude mice.

For “rhIL-2: recombinant human IL-2 (Proleukin) [reference compound]”, the “lytic activity of stimulated mouse splenocytes” value in the assay with YAC-1 target cells was “Equivalent levels of lytic activity”. Moreover, in assay [1], the tumor growth result is reported as “no effect”. Also, the “CD45R-positive cells in A375 tumors” value in the assay with CD45R+ cells in tumors was “only small CD45R+ cells were observed”. The substance further displayed a Median survival in assay [2] of 67.5 days. Moreover, the “mice that developed tumors” value in assay [3] (0.4 mg/kg i.v., 9 doses, tumors established three days) is given as “All of the mice”. Also, the “tumor growth following two dosing cycles” value in assay [3] (264scTCR/IL-2 0.5 mg/kg daily x4 per cycle, rhIL-2 0.4 mg/kg every 8 hrs for five days per cycle) is reported as “inhibited tumor growth to a similar degree”. Also, the “tumor increase during the course of treatment” value in assay [3] (tumors grown to 200 mm^3, 9 doses i.v.) is “over 4 fold”.
